The record followed here is article PMC6469174 (Pharmaceuticals, 2019).

Amino acid sequences for entries named in this document (tags omitted). Residues count along the entry.
UniProt P01375, 77-233: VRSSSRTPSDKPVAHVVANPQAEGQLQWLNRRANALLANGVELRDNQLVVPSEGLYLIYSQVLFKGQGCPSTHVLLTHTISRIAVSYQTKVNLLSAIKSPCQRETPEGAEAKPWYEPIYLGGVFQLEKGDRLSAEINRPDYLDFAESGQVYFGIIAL

The assay concerns the target TNF-α (UniProt P01375 77-233). Put plainly: cell-based or functional assay.

B1: N-deglycosylated Altebrel™ (proposed etanercept biosimilar), lot 9202008 (Fc fusion, UniProt P20333 23-257, looked up)
chain: LPAQVAFTPYAPEPGSTCRLREYYDQTAQMCCSKCSPGQHAKVFCTKTSDTVCDSCEDSTYTQLWNWVPECLSCGSRCSSDQVETQACTREQNRICTCRPGWYCALSKQEGCRLCAPLRKCRPGFGVARPGTETSDVVCKPCAPGTFSNTTSSTDICRPHQICNVVAIPGNASMDAVCTSTSPTRSMAPGAVHLPQPVSTRSQHTQPTPEPSTAPSTSFLLPMGPSPPAEGSTGD
modifications: N-glycans (asparagine 149, 171, 317) removed with PNGase F; O-glycosylated; C-terminal lysine cleaved
In the case of B1, the “potency ratio to the in-house standard (pool of three batches of the originator); neutralisation of TNF-α-induced necroptosis of L929 cells, Alamar blue; Average” value was found to be 0.87; the “potency ratio to the in-house standard (pool of three batches of the originator); neutralisation of TNF-α-induced necroptosis of L929 cells, Alamar blue; Replicate 1” value turned out to be 0.79; the “potency ratio to the in-house standard (pool of three batches of the originator); neutralisation of TNF-α-induced necroptosis of L929 cells, Alamar blue; Replicate 2” value worked out at 0.95.

B2: Enbrel® (etanercept, the originator), lot H17609 (Fc fusion, UniProt P20333 23-257, looked up)
chain: B1 chain
modifications: N-glycosylated at asparagine 149 and 171 (TNFr domain) and asparagine 317 (Fc domain); O-glycosylated (N-terminal peptide, linker domain, hinge, e.g. serine 259); C-terminal lysine cleaved; methionine oxidation in part (Met 30, 187, 272, 378, 448)
On to B2, for which the “potency ratio to the in-house standard (pool of three batches of the originator); neutralisation of TNF-α-induced necroptosis of L929 cells, Alamar blue; treatment control sample; Average” value is 0.97; the “potency ratio to the in-house standard (pool of three batches of the originator); neutralisation of TNF-α-induced necroptosis of L929 cells, Alamar blue; treatment control sample; Replicate 1” value worked out at 0.85; the “potency ratio to the in-house standard (pool of three batches of the originator); neutralisation of TNF-α-induced necroptosis of L929 cells, Alamar blue; treatment control sample; Replicate 2” value turned out to be 1.08.

B3: N-deglycosylated Enbrel® (etanercept), lot H17609 (Fc fusion, UniProt P20333 23-257, looked up)
chain: B1 chain
modifications: N-glycans (asparagine 149, 171, 317) removed with PNGase F; O-glycosylated; C-terminal lysine cleaved
As to B3, the “potency ratio to the in-house standard (pool of three batches of the originator); neutralisation of TNF-α-induced necroptosis of L929 cells, Alamar blue; Average” value worked out at 0.87; the “potency ratio to the in-house standard (pool of three batches of the originator); neutralisation of TNF-α-induced necroptosis of L929 cells, Alamar blue; Replicate 1” value stood at 0.79; the “potency ratio to the in-house standard (pool of three batches of the originator); neutralisation of TNF-α-induced necroptosis of L929 cells, Alamar blue; Replicate 2” value came out at 0.95.

B4: Altebrel™ (the proposed etanercept biosimilar), lot 9202008 (Fc fusion, UniProt P20333 23-257, looked up)
chain: B1 chain
modifications: N-glycosylated at asparagine 149 and 171 (TNFr domain) and asparagine 317 (Fc domain); O-glycosylated (N-terminal peptide, linker domain, hinge, e.g. serine 259); C-terminal lysine cleaved; methionine oxidation in part (Met 30, 187, 272, 378, 448); amidation at glutamic acid 292 higher than in the originator
For B4, the “potency ratio to the in-house standard (pool of three batches of the originator); neutralisation of TNF-α-induced necroptosis of L929 cells, Alamar blue; treatment control sample; Average” value was 0.88; the “potency ratio to the in-house standard (pool of three batches of the originator); neutralisation of TNF-α-induced necroptosis of L929 cells, Alamar blue; treatment control sample; Replicate 1” value was 0.84; the “potency ratio to the in-house standard (pool of three batches of the originator); neutralisation of TNF-α-induced necroptosis of L929 cells, Alamar blue; treatment control sample; Replicate 2” value worked out at 0.91.
